One test deals with human 5-HT2C receptor (Homo sapiens, UniProt P28335). The experiment in a line: 5-HT2C receptor-stimulated calcium mobilization (FLIPR) in CHO cells. To be noted: reference compounds. On the technique in general: A change in cytosolic calcium serves as a functional read-out for many receptors and channels.
Test [1] addresses human 5-hydroxytryptamine-2C (h-5-HT2C) receptor (Homo sapiens, UniProt P28335). The experiment in a line: [125I]DOI binding to membranes of CHO cells expressing the h-5-HT2C receptor. To be noted: reference compounds; displacement of [125I]DOI, CHO cell membranes; read-out: Ki (95% confidence interval). Background: Loss of bound radioactivity is the signal in a displacement assay; it reports binding, not function.

Chains of the proteins cited; added tags and fusions are not shown. Residues count along the entry.
UniProt P28335, 33-458: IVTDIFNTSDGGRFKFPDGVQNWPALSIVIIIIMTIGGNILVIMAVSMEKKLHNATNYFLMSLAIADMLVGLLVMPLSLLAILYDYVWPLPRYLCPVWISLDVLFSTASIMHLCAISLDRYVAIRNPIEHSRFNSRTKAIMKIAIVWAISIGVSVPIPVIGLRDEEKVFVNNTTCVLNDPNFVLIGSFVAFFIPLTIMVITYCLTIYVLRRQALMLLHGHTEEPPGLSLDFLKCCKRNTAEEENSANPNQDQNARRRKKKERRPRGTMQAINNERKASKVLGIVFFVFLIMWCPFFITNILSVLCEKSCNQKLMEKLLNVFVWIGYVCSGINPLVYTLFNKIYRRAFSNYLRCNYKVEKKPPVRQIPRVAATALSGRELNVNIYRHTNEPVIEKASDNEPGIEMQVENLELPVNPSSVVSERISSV

In general, pEC50 refers to −log10 of the EC50, conventionally taken in molar units. What is called pKi is the Ki on a negative log10 scale, so that one unit is a factor of ten.

pEC50, pKi: −log10 of the molar value.

For the compound `Clc1cccc(N2CCNCC2)c1` [mCPP, meta-chlorophenylpiperazine, reference compound], the pEC50 on human 5-HT2C receptor was 8.27. Moreover, the pKi in test [1] is 8.19.

The record behind these values is patent publication US7012089B2, “[1,4]Diazocino[7,8,1-hi]indole derivatives as antipsychotic and antiobesity agents” (Wyeth, priority 2002, dated 2006).
